Results from patent publication US10717729B2, “Thiamine-organic acid salt” (Purdue Research Foundation, priority 2018, dated 2020).

Conditions: dynamic moisture sorption
Description: Moisture sorption profiles were generated at 25° C. using an SGA-100 symmetrical gravimetric analyzer (TA Instrument, New Castle, Del.). The samples (5-20 mg) were exposed to 25% to 95% relative humidity (RH) at step size of 5% RH and from 95 to 99% RH at step size of 1% RH, with a maximum step time of 360 min. The equilibrium criteria were set to change of mass of less than 0.01% (w/w) for 5 min for each step. Nitrogen was used as the purge gas.

- hygroscopic behaviour (in words): practically non-hygroscopic
Substance: thiamine mononitrate
